From ChEMBL document CHEMBL4028801, “A multifactorial approach to hepatobiliary transporter assessment enables improved therapeutic compound development” (Toxicol Sci, 2013)

By UniProt entry, the sequences of proteins in these tests, tags left out. Where a name states a change or a piece, a line headed by the entry shows the natural chain unless it says otherwise.
UniProt O15438: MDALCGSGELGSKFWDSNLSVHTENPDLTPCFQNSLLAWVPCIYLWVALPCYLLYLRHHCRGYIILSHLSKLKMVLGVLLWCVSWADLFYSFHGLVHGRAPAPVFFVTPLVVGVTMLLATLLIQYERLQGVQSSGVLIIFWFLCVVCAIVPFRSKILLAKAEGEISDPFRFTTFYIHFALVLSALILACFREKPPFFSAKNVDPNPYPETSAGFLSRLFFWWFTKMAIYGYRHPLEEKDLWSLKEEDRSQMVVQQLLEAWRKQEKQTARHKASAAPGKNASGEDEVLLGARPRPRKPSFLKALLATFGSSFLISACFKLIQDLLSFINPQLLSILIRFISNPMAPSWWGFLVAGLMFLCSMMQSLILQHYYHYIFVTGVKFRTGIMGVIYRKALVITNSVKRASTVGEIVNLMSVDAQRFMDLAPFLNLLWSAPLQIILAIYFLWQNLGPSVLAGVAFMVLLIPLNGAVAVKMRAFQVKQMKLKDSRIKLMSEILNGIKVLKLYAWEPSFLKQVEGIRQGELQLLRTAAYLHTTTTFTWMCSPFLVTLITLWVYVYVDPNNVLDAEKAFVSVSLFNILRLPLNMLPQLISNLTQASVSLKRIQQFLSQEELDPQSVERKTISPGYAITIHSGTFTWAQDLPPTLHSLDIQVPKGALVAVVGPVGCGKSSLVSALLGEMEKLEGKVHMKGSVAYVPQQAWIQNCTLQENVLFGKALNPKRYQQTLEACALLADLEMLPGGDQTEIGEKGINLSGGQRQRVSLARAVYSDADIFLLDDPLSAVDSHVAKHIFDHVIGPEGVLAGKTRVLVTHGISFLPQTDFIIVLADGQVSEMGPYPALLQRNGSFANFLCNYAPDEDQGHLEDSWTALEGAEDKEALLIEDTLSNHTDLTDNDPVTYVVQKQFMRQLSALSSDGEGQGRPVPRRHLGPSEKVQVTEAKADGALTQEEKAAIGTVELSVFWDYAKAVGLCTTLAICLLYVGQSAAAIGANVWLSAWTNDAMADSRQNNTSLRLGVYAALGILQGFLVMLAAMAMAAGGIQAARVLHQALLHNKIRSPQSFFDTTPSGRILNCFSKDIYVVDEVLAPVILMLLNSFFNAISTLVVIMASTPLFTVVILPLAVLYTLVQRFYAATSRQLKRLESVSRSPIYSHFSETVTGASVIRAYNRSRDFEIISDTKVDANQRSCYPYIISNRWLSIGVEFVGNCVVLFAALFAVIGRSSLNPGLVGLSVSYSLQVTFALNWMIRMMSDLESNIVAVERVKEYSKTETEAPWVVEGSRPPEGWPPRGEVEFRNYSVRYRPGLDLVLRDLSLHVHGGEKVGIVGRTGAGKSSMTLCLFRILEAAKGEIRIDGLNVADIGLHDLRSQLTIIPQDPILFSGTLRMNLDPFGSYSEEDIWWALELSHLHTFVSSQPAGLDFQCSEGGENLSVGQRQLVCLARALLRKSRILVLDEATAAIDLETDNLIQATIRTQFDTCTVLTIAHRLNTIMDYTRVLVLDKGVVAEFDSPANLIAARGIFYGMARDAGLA

Molecular target: ATP-binding cassette sub-family C member 3 (Homo sapiens, UniProt O15438)
Assay type: ADME, cell-based

For BIVALIRUDIN, the IC50 was > 133 µM.
